Experimental data taken from PubChem BioAssay AID680 (PCMD, 2007).
The list shows a part of the results, in another mix than the full data. Some results for these compounds are left out of this collection, so the calls shown say nothing about other tests. Calls of active or inactive are those of the source. No stated cut-off is given here; in the data, active means inhibition above about 20% (passing the limit was not always enough); inactive means the rest.

The chains behind the UniProt entries cited, without tags or fusion partners. Residues count along the entry.
UniProt P03951, 19-387 limits assumed: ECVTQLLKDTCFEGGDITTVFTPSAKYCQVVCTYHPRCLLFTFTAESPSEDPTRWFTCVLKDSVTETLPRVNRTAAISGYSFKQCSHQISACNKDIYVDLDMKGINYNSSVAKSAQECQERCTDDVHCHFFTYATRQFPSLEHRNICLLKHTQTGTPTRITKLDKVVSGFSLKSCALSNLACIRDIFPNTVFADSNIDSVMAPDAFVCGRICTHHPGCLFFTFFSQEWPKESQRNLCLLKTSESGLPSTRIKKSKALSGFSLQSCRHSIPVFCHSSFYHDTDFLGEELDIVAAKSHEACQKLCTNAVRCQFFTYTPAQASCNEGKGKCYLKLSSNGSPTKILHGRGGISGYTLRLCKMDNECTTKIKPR
UniProt P03951, 388-625 limits assumed: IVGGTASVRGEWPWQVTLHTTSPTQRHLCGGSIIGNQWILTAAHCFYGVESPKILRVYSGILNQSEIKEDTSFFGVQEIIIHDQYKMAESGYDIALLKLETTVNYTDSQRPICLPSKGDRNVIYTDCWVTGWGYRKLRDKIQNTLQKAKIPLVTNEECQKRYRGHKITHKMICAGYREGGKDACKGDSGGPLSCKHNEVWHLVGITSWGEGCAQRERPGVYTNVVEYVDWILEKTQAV

Target: Coagulation factor XI (Homo sapiens) (UniProt P03951)
Test: FXIa protease inhibitors in compound pools, primary screen, biochemical, 10-compound mixtures (AID 680);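 further: each value is inhibition by a whole ten-compound pool holding the compound; 0% = enzyme with no mixture and 100% = wells lacking enzyme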
Details: purified FXIa, fluorogenic substrate, pooled mixtures; at 5 µM; active compounds read high

Q: With `O=C(OC1CN2CCC1CC2)C(CO)(c1ccccc1)c1ccccc1` (configuration not stated) as the compound, how does the inhibition read?
A: Its inhibition is inactive: 6.48%.

Q: `CN(C)c1cccc(C(=O)NCC2(N(C)C)CCCCC2)c1` was tested. Which inhibition did it give?
A: The inhibition was inactive: 11.2%.
